Laboratory results reported in ChEMBL document CHEMBL3046112, “Comparative study of antimicrobial peptides to control citrus postharvest decay caused by Penicillium digitatum” (J Agric Food Chem, 2007).

System: Escherichia coli
Assay: Antimicrobial activity against Escherichia coli DH5[alpha] assessed as microbial growth inhibition after 4 days by microtiter plate assay
Assay type: functional
Conditions: 96 h
Procedure, shortened: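 Microtiter dose–response assay, as previously described. Peptide stocks were 1 mM in 5 mM MOPS pH 7. P. digitatum conidia came from 7–10-day PDA cultures grown at 24 °C and were counted with a hematocytometer. Yeast (YPD, 30 °C) and E. coli (LB, 37 °C) were grown to stationary phase and diluted. Growth was read as OD492 in triplicate. MIC: lowest concentration with no growth after 4 days in all independent experiments, each repeated at least three times.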

In the case of CC[C@H](C)[C@H](NC(=O)CN)C(=O)NCC(=O)N[C@@H](C)C(=O)N[C@H](C(=O)N[C@@H](CC(C)C)C(=O)N[C@@H](CCCCN)C(=O)N[C@H](C(=O)N[C@@H](CC(C)C)C(=O)N[C@H](C(=O)N[C@H](C(=O)NCC(=O)N[C@@H](CC(C)C)C(=O)N1CCC[C@H]1C(=O)N[C@@H](C)C(=O)N[C@@H](CC(C)C)C(=O)N[C@H](C(=O)N[C@@H](CO)C(=O)N[C@@H](Cc1c[nH]c2ccccc12)C(=O)N[C@H](C(=O)N[C@@H](CCCCN)C(=O)N[C@@H](CCCNC(=N)N)C(=O)N[C@@H](CCCCN)C(=O)N[C@@H](CCCNC(=N)N)C(=O)N[C@@H](CCC(N)=O)C(=O)N[C@@H](CCC(N)=O)C(N)=O)[C@@H](C)CC)[C@@H](C)CC)[C@@H](C)O)[C@@H](C)O)C(C)C)C(C)C [MELITTIN], the MIC was 8 µM (≈ 22.8 µg/mL).

In brackets after ≈: the same amount, converted by molar mass.
